Source: paper PMC4697837, “Bay 61-3606 Sensitizes TRAIL-Induced Apoptosis by Downregulating Mcl-1 in Breast Cancer Cells” (PLoS ONE, 2015)
Structures can show the parent of a compound that is named as a salt.

By UniProt entry, the sequences of proteins in these tests, tags left out.
UniProt P50750, whole entry: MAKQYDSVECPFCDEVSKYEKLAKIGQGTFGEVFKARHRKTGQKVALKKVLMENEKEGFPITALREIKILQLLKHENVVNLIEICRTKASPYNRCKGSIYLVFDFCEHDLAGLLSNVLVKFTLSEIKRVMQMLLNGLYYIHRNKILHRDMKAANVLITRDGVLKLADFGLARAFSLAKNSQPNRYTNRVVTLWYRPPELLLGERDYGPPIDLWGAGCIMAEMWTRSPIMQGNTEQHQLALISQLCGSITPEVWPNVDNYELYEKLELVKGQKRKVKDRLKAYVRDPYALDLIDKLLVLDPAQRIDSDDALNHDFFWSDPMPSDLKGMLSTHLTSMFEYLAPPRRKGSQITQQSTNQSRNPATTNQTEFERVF

Biological target: T1, Cyclin-Dependent Kinase (CDK) 9 (Homo sapiens, UniProt P50750)
T1 construct: gene CDK9
Experiment: in vitro radiometric kinase assay (Merck Millipore Kinase Profiling Service)
Format: biochemical

Q: How did the IC50 turn out when `COc1ccc(-c2cc3nccn3c(Nc3ncccc3C(N)=O)n2)cc1OC` [Bay 61–3606, 2-[7-(3,4-dimethoxyphenyl)-imidazo[1,2-c]pyrimidin-5-ylamino]nicotinamide dihydrochloride] was run?
A: The IC50 was 37 nM.
